The text below walks through data of ChEMBL document CHEMBL1124922 (J Med Chem, 1990).

One assay is filed under the species Cricetulus griseus. Kind of assay: Evaluated for hypersensitivity factor (HF) (HF = IC50 AA8 / IC50 UV-4) values are intra experiment ratios. In kind it is functional.
In the next assay the test system is UV-4. Kind of assay: Evaluated for (CF10) the concentration x time to reduce the surviving fraction to 10% of controls in the stirred suspension assay (SSC) in UV-4 cells under aerobic conditions. To be noted: Cricetulus griseus.
The nature of assay [1]: Evaluated for ratio of CT10 value. (CT10 = aerobic CT10 / hypoxic CT10).

In the case of `ClCCN(CCCl)c1ccccc1`, the Ratio in the assay filed under Cricetulus griseus came out at 52; in assay [1], 1. In the assay with UV-4, the CT10 is 3 µM/h.
